# Source: patent US9018216B2, “Solid forms of (R)-2-(5-(2-(3-ethylureido)-6-fluoro-7-(tetrahydrofuran-2-yl)-1H-benzo[d]imidazol-5-yl)pyrimidin-2-yl)propan-2-yl dihydrogen phosphate and salts thereof” (priority 2012, dated 2015)
# Assay: Rat IV pharmacokinetic study
# Conditions: D5W, plasma analyte
compound,measurement,setting,value
"CCNC(=O)Nc1nc2cc(-c3cnc(C(C)(C)O)nc3)c(F)c([C@H]3CCCO3)c2[nH]1 [Compound 23, 1-ethyl-3-[6-fluoro-5-[2-(1-hydroxy-1-methyl-ethyl)pyrimidin-5-yl]-7-[(2R)-tetrahydrofuran-2-yl]-1H-benzimidazol-2-yl]urea]",Cmax/C0,Compound W IV 1 mg/kg,0.247 µg/mL
same,Cmax/C0,Compound W IV 5 mg/kg,1.2 µg/mL
